{"source": "ChEMBL document CHEMBL1155778", "about": "“The many roles for fluorine in medicinal chemistry” (J Med Chem, 2008)", "test": "Dissociation constant, pKa of the compound", "format": "physicochemical"}
{"molecule": "Nc1cccc(F)c1", "values": [{"measurement": "pKa", "result": 3.58}]}
